In the library only some 0.43% were active in any assay of this set; here they are far more common.
GIV Gai3 FP – inhibitors of GIV peptide binding to Galpha-i3, primary screen, biochemical, fluorescence polarization, FITC-GIV GBA peptide, rat Galphai3; hit rate 0.42% among 210,000; percent of control (FP), % (concentration not given with the values); 90 min; stronger effect = lower value; scaled: aluminum fluoride 0%, vehicle 100%; Guanine nucleotide-binding protein G(i) subunit alpha-3 (Rattus norvegicus), P08753;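 active = replicate mean at 85% of control or lower, very high polarization wells dropped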;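 note: wells of about 15 µL received 100 nL stock; the first replicate is given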
HCMV UL50-53 inh – disrupts HCMV UL50-UL53 complex binding. 190,000 compounds, 0.15% hits. inhibition, % (no concentration beside the values). HTRF UL50-UL53 interaction, normalized percent inhibition; in the data active means inhibition above about 27%, passing the limit was not always enough
GIV-Gai FP conf – confirmation of inhibitors of GIV binding to rat Galpha-i3 | FITC-GIV peptide binding to Galphai3, fluorescence polarization; hits give low values | shares compounds with GIV Gai3 FP | 580 compounds, 38% hits | fluorescence polarization, mP at 100 µM;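 active means inhibition score of 15 or more, meaning 100 minus mean polarization as percent of control over three replicates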;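 further: lower mP means peptide displaced from Galphai3 so more inhibition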
GIV Gai AS conf – confirmation of inhibitors of GIV binding to human Galpha-i3; shares compounds with GIV Gai3 FP; AlphaScreen Galphai3-GIV binding, purified proteins, 90 min; hits give low values; AlphaScreen counts at 100 µM; 580 compounds, 39% hits;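 active means inhibition score at or above a set limit, where the score is 100 minus the three-replicate mean percent of control signal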
* = called active by the depositor; / = no result.

Amino acid sequences for entries named in this document (tags omitted).
Guanine nucleotide-binding protein G(i) subunit alpha-3 (Rattus norvegicus), P08753, UniProt P08753, whole entry, looked up: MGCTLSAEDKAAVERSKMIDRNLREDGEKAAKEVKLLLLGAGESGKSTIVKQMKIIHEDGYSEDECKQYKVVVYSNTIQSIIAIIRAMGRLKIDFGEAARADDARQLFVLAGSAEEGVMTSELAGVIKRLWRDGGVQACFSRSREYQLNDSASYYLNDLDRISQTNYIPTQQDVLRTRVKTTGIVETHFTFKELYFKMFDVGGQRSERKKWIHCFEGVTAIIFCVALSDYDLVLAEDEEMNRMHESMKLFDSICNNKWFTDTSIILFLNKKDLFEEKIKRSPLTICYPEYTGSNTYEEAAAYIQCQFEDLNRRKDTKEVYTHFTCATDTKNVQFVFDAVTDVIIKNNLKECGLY

smiles | GIV Gai AS conf | HCMV UL50-53 inh | GIV Gai3 FP | GIV-Gai FP conf
CC(=O)c1ccc2nc(-c3ccccc3)c(-c3ccccc3)nc2c1 | / | / | 108 | /
CCCSc1nc2c(c(-c3ccc(C)o3)c1C#N)CCCC2 | / | / | 117 | /
Cc1cc(C(=O)O)c(CSc2ncn[nH]2)o1 | / | -5 | / | /
CNC(=O)CCCc1nc(-c2ccc(OC)cc2)no1 | / | -6 | 101 | /
COc1ccc(-c2noc(CCCC(=O)Nc3nccs3)n2)cc1 | 44685 | -18 | 91 | 65
CCc1cc2c(N3CCCC(C(=O)NCCN4CCC(C)CC4)C3)ncnc2s1 (stereo not given) | / | / | 107 | /
O=C(Cn1c(=O)n(CCCC(=O)NC2CCCC2)c(=O)c2ccccc21)NCCC1=CCCCC1 | / | -21 | 105 | /
COC(=O)c1[nH]c(C(=O)OC)c(O)c1O | 50522 | -12 | 59* | 65
COC(=O)c1[nH]c(C)c(C(=O)OC)c1C | / | -6 | / | /
COc1c(Cl)cc(Cl)cc1CNCCSc1nnnn1C | / | 0 | 107 | /
Cc1cc(C(F)(F)F)[nH]c(=O)c1C#N | / | -10 | / | /
Cc1cc(C(F)(F)F)c(C#N)c(=O)[nH]1 | 51023 | / | 40* | 66
OCC1O[C@H]([S-])[C@@H](O)C(O)[C@@H]1O.[Au+] (stereo not given in full) | 6583* | -111 | 65* | 57*
OCC1O[C@H](O)C(Cl)C(O)C1O (stereo not given in full) | / | -23 | 105 | /
Cc1c(CCC#N)c(=O)n2c([nH]c3ccccc32)c1C#N | / | -5 | / | /
O=C1CC(C(=O)Nc2ccccc2)N=C(N2CCc3ccccc3C2)N1 (stereo not given) | 33162 | 1 | 81* | 75
CN1CCN(C2=NC(C(=O)Nc3ccccc3)CC(=O)N2)CC1 (stereo not given) | / | 10 | 109 | /
Cc1ccc(/C=C2\SC(=S)N(C(CCC(=O)O)C(=O)O)C2=O)cc1 (stereo not given) | / | -68 | / | /
O=C(O)c1cccc(N2C(=O)/C(=C/c3ccccc3)SC2=S)c1 | / | -5 | / | /
O=C(O)c1cccc(N2C(=O)/C(=C\C=C\c3ccco3)SC2=S)c1 | 35403 | -11 | 74* | 71
CC(C(=O)O)N1C(=O)/C(=C/c2ccco2)SC1=S (stereo not given) | 3227* | -66 | 75* | 55*
O=C(O)CCC(C(=O)O)N1C(=O)/C(=C/C=C/c2ccco2)SC1=S (stereo not given) | 2132* | 75* | 39* | 47*
CC(C)C(C(=O)O)N1C(=O)/C(=C/C=C/c2ccco2)SC1=S (stereo not given) | 1448* | 82* | 58* | 54*
CC(C(=O)O)N1C(=O)/C(=C\c2ccco2)SC1=S (stereo not given) | / | -62 | / | /
Cc1ccc(/C=C2\SC(=S)N(C(C(=O)O)C(C)C)C2=O)cc1 (stereo not given) | / | / | 103 | /
O=C(CNc1ccccc1)N/N=C/c1cn(-c2ccccc2)nc1-c1cc2ccccc2o1 | / | -26 | / | /
COc1ccc(-c2[nH]ncc2C(=O)NCCc2ccc(OC)c(OC)c2)cc1 | / | -23 | 112 | /
CC(=O)Nc1ccc(NC(=O)c2cc(-c3cccs3)on2)cc1 | / | -14 | 97 | /
Brc1ccc2nc[nH]c2c1 | / | -2 | 101 | /
O=C(CSc1nc2ccccc2n1S(=O)(=O)c1cccs1)Nc1ccccc1F | / | / | 108 | /
CCCC(C(=O)O)N1C(=O)/C(=C/c2ccc(C)cc2)SC1=S (stereo not given) | / | -16 | / | /
CCCCC(C(=O)O)N1C(=O)/C(=C/c2cccnc2)SC1=S (stereo not given) | 35991 | -45 | 83* | 72
N=P(N1CCOCC1)(N1CCOCC1)C12CC3CC(CC(C3)C1)C2 | / | -1 | / | /
CCCCC(=O)N1c2ccc(OC)cc2C(=C2SC(C(=O)OCC)=C(C(=O)OCC)S2)C(=S)C1(C)C | / | / | 110 | /
Oc1ccc(C(=S)N2CCOCC2)cc1 | / | 4 | 110 | /
CCN(CC)S(=O)(=O)c1ccc2oc(C(=O)Nc3cc(C)ccc3OC)c(C)c2c1 | / | / | 105 | /
CCN1/C(=C\C=C\c2n(CC)c3cc(Cl)c(Cl)cc3[n+]2CCCS(=O)(=O)[O-])N(CCCS(=O)(=O)O)c2cc(Cl)c(Cl)cc21 | 10331* | / | 79* | 74
COc1cc(C2Nc3ccccc3-c3nnc(SC)nc3O2)cc(Br)c1O (stereo not given) | / | -51 | 105 | /
COc1ccc(C2Nc3ccccc3-c3nnc(SC)nc3O2)cc1C (stereo not given) | 27274 | -37 | 36* | 82
CCCSc1nnc2c(n1)OC(c1cccs1)Nc1ccccc1-2 (stereo not given) | / | -31 | 103 | /
CSc1nnc2c(n1)OC(c1cccs1)Nc1ccccc1-2 (stereo not given) | 27085* | -37 | 53* | 61
COc1ccc(NC(=O)CC2C(=O)N(c3ccc(C)cc3)C(=O)N2CCc2ccccc2)cc1 (stereo not given) | / | -37 | 104 | /
COc1ccc(/C=C2/SC(=S)N(CCC(=O)Nc3c(C)n(C)n(-c4ccccc4)c3=O)C2=O)cc1 | 43904 | -15 | 57* | 75
COc1ccc(/C=C2\SC(=O)N(CCC(=O)Nc3c(C)n(C)n(-c4ccccc4)c3=O)C2=O)cc1 | / | -7 | 106 | /
CC1(C)CC(=O)C2=C(C1)OC1=C(C(=O)CC(C)(C)C1)C2c1ccc(-c2cccc(Cl)c2)o1 | / | -16 | 101 | /
CCCSc1nc(-c2ccccc2)[nH]c1S(=O)(=O)c1ccc(C)cc1 | / | -26 | 98 | /
Cc1[nH]c(=S)[nH]c(=O)c1CC(=O)O | / | -26 | 95 | /
Oc1ccc(N=Cc2ccccc2O)cc1 | / | 7 | 104 | /
Oc1ccccc1C=Nc1cccnc1 | 16309* | -5 | 83* | 42*
O=C1NC(=O)N(C2CCCCC2)C(=O)/C1=C/c1ccc(O)cc1 | / | 34 | 94 | /
Cc1ccc(-c2ccc(=O)n(CCc3nc(-c4ccc5c(c4)OCO5)no3)n2)cc1C | / | / | 103 | /
Cc1cc(C)c2oc(-c3ccc(NC(=O)COc4ccccc4C)cc3)nc2c1 | / | -56 | 105 | /
O=C(Nc1ccc(-c2nc3ncccc3o2)cc1)c1ccccc1 | / | / | 107 | /
Cc1ccc(C(C)C)c(OCC(=O)Nc2cccc(-c3nc4ncccc4o3)c2)c1 | / | -68 | 108 | /
Cc1ccc(OCC(=O)Nc2ccc(-c3nc4ccccc4o3)cc2)c(C)c1 | 32376 | 11 | 93 | 74
Cc1cc(C)cc(C(=O)Nc2ccc(-c3nc4ncccc4o3)cc2)c1 | 27053 | -39 | 82* | 81
Cc1ccc(C(C)C)c(OCC(=O)Nc2cc(-c3nc4ncccc4o3)ccc2C)c1 | 43747 | / | 88 | 62
Cc1ccc(C)c(NC(=O)Cn2nnc(C(=O)NCCc3ccccc3)c2N)c1 | / | / | 98 | /
CC1(C)Cc2ccccc2C(C2=C(O)CCCC2=O)=N1 | / | / | 105 | /
CC1(C)Cc2ccccc2C2=NNC(=O)C2=N1 | 30303 | -29 | 76* | 54*
CCc1ccc(S(=O)(=O)/N=C2/C=C(Nc3ccccc3)C(=O)c3ccccc32)cc1 | / | / | 101 | /
CCc1ccc(S(=O)(=O)/N=C2\C=CC(=O)c3ccccc32)cc1 | 1607* | / | 5.6* | 12*
Cc1cccc(-c2nc3nc(C)cc(N4CCN(c5ccccc5)CC4)n3n2)c1 | / | -36 | 103 | /

5 entries from above, with two lines to a compound.
Every second line gives: GIV Gai AS conf, HCMV UL50-53 inh, GIV Gai3 FP, GIV-Gai FP conf
CC1(C)Cc2ccccc2C(C2=C(O)CCCC2=O)=N1
  /, /, 105, /
CC1(C)Cc2ccccc2C2=NNC(=O)C2=N1
  30303, -29, 76*, 54*
CCc1ccc(S(=O)(=O)/N=C2/C=C(Nc3ccccc3)C(=O)c3ccccc32)cc1
  /, /, 101, /
CCc1ccc(S(=O)(=O)/N=C2\C=CC(=O)c3ccccc32)cc1
  1607*, /, 5.6*, 12*
Cc1cccc(-c2nc3nc(C)cc(N4CCN(c5ccccc5)CC4)n3n2)c1
  /, -36, 103, /
